## Ab-95 light chain CDR variants: yeast mating affinities

All variants were tested on one target, the spike HR2 peptide PDVDLGDISGINAS (SARS-CoV-2).

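The starting antibody came from a phage panning campaign against this peptide. Library AAYL52 holds single substitutions and randomly drawn double and triple substitutions in the CDRs. The assay is AlphaSeq: two haploid yeast populations carry antibody and antigen on their surface. Pairs that bind mate more often; barcode pairs of the diploids are counted by sequencing. Scores were corrected for input abundance and mapped to Kd with protein pairs of known affinity run in the same pool. Mating was done three times.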

Parent scFv Ab-95: VH joined to VL by a 15-residue (Gly4Ser)3 linker. Changes lie in the light chain CDRs alone.
VH: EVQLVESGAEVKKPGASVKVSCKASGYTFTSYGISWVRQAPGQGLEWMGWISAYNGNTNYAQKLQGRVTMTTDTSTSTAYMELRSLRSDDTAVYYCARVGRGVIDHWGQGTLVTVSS
VL: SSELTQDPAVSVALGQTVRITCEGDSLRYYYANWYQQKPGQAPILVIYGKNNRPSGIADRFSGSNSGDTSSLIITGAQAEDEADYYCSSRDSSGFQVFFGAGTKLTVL

Substitutions are numbered in sequence along the VL above, starting at 1 (not Kabat). Values are log10 of the apparent Kd in nM; lower means stronger binding. Averages over replicates are reported, and they cover detected replicates only. "nd" marks a missing value. The strain was present, yet no cells mated with the target were sequenced in any replicate, which points to weak or no binding. Empty control strains, which show no peptide, gave a signal in 28% of pairings with library AAYL52; the median was 3.91 and 95% of these signals were weaker than 2.90. No background was subtracted. Also given: how often the same scFv was detected with the empty control strains.

changes,"mean, log10 nM",replicates with signal,empty controls
Y30T R90H V97H,3.35,1/3,3/9
K50D R53N S93C,3.77,1/3,4/9
E23I P54N Q96W,nd,0/3,2/9
E23A Y30N N33D,1.40,3/3,2/9
Y30P Q96N F98C,1.29,3/3,3/9
N52M S92W F98M,3.15,3/3,1/9
Y31F P54E F95Y,2.30,3/3,1/9
P54Y S88W V97W,4.52,1/3,2/9
G24A P54S V97T,nd,0/3,4/9
N52S P54M F95K,3.18,3/3,6/9
Y29G K50M,0.93,3/3,4/9
D25N Y31T K50P,1.80,3/3,0/9
P54T S89V G94K,2.79,3/3,5/9
S26D G94D V97F,3.71,3/3,6/9
Y30G R53N R90S,3.71,1/3,2/9
D25V S26V,2.72,3/3,4/9
L27E S92W S93I,4.81,3/3,1/9
Y30G R90L,1.25,3/3,4/9
G24H S93N V97C,3.48,3/3,2/9
D25Y Y31E P54R,2.40,3/3,1/9
S89A G94M,1.88,3/3,5/9
N51I S93L Q96A,nd,0/3,0/9
Y29S K50C S93T,2.62,3/3,0/9
P54T S88D F95K,4.21,3/3,5/9
D25M S89M F98G,3.23,2/3,4/9
E23S N52P,2.85,3/3,3/9
N51R R53E G94C,3.82,3/3,5/9
D25S P54I S92N,3.37,3/3,1/9
R28S N33T D91Q,4.94,2/3,3/9
N33S G49F N52E,nd,0/3,1/9
G24R Y29E N51I,nd,0/3,3/9
L27T Y29Q F95S,3.67,2/3,2/9
S26H N52M S93Q,2.61,3/3,4/9
D91N G94M Q96Y,nd,0/3,0/9
Y30I G94E Q96I,3.51,3/3,4/9
E23G R28F G94M,4.41,2/3,1/9
E23T G49T S89Y,3.95,1/3,2/9
E23F Y30V,2.50,3/3,4/9
P54K S92Y F98A,4.20,3/3,4/9
Y30A S89E R90T,1.29,3/3,5/9
K50D S55V D91V,3.94,1/3,2/9
Y30V D91Y S92T,3.76,1/3,0/9
G24F N52L S88E,4.32,2/3,1/9
L27A A32M F95G,3.57,3/3,3/9
E23C S26Q Y29M,4.38,1/3,3/9
S55Y R90F F95V,2.11,3/3,2/9
S26A R53T S93Y,3.22,3/3,2/9
G24M N52H,4.89,2/3,5/9
R53D S88A,3.48,1/3,2/9
E23K Y29A Y31L,1.76,3/3,0/9
E23S Y29Q S55M,1.72,3/3,2/9
A32Y S88L S93K,3.65,1/3,1/9
P54G D91Y V97H,1.54,3/3,0/9
N51C D91H G94R,4.60,1/3,1/9
L27M P54A S93R,3.04,3/3,2/9
Y30L R53C R90E,3.59,1/3,5/9
Y30G V97N F98G,2.45,1/3,0/9
S26W G49H Q96E,4.47,1/3,1/9
R28Q P54S S89R,3.53,3/3,2/9
R28G N33C S89Q,1.43,3/3,3/9
E23F N51S P54I,nd,0/3,0/9
R28E S92F,2.94,3/3,0/9
Y29S S55W S93R,3.06,3/3,0/9
A32I S55E,2.95,3/3,3/9
G24W N33T N52P,nd,0/3,2/9
D25M A32T S55P,2.56,3/3,3/9
L27C S88F S89F,4.54,2/3,6/9
S89A S92F S93I,3.46,3/3,0/9

The 8 strongest on average among those seen in every replicate, once more:

changes,"mean, log10 nM",replicates with signal,empty controls
Y29G K50M,0.93,3/3,4/9
Y30G R90L,1.25,3/3,4/9
Y30A S89E R90T,1.29,3/3,5/9
Y30P Q96N F98C,1.29,3/3,3/9
E23A Y30N N33D,1.40,3/3,2/9
R28G N33C S89Q,1.43,3/3,3/9
P54G D91Y V97H,1.54,3/3,0/9
E23S Y29Q S55M,1.72,3/3,2/9

For reference, the parent read 2.31 as the reference entry and 2.25 as a member of this library.

From the AlphaSeq antibody data of Engelhart et al. 2022 (doi:10.1038/s41597-022-01779-4), copy in the FLAb collection.